Source: ChEMBL document CHEMBL2311283, “Structural modifications to tetrahydropyridine-3-carboxylate esters en route to the discovery of M5-preferring muscarinic receptor orthosteric antagonists” (J Med Chem, 2013)

Protein sequences, listed by entry. Tags and fused reporters are not part of them.
UniProt P08173, whole entry: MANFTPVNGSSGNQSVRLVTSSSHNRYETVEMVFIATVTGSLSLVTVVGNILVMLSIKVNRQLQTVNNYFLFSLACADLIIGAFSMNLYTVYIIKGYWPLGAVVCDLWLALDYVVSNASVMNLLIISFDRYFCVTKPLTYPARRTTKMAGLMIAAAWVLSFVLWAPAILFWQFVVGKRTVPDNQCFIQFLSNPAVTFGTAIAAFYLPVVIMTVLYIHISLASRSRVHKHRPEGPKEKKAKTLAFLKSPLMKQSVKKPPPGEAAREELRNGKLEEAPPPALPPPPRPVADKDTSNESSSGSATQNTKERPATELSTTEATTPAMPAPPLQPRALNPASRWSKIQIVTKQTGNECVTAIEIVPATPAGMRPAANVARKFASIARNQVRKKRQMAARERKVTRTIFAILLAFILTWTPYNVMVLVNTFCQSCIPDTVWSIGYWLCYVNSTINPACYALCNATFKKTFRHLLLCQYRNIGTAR
UniProt P08172, whole entry: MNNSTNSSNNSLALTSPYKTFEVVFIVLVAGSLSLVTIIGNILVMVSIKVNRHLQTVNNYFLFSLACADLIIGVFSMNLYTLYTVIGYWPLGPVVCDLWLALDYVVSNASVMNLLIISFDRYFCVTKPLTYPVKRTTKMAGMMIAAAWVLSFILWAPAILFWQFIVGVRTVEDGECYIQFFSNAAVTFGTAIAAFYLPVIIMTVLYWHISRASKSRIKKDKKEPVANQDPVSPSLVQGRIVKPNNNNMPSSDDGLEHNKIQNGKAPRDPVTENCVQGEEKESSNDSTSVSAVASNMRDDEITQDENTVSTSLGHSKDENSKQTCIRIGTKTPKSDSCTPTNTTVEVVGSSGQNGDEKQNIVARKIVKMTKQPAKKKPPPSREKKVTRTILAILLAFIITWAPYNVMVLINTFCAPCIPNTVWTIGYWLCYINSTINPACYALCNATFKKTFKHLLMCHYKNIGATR
UniProt P08912, whole entry: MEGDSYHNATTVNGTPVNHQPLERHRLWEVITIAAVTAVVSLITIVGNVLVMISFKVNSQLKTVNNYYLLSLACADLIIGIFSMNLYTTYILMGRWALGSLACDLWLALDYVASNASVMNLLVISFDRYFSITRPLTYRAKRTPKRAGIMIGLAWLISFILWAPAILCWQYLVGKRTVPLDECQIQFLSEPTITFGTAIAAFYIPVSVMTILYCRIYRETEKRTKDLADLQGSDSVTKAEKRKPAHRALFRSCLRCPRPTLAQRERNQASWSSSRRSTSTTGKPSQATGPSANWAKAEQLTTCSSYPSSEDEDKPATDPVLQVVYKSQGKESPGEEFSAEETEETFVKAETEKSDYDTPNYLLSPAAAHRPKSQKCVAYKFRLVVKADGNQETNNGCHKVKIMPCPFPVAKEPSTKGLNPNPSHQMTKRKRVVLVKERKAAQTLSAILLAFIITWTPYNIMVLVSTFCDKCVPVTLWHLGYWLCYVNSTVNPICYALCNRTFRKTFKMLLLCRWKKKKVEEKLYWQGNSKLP

Legend:
Format in all cases: cell-based
[1] = biological target: Muscarinic acetylcholine receptor M4 (Homo sapiens, UniProt P08173); assay: Displacement of [3H]NMS from human M4 muscarinic receptor expressed in CHO-K1 cells
[2] = biological target: Muscarinic acetylcholine receptor M2 (Homo sapiens, UniProt P08172); assay: Displacement of [3H]NMS from human M2 muscarinic receptor expressed in CHO-K1 cells
[3] = biological target: Muscarinic acetylcholine receptor M5 (Homo sapiens, UniProt P08912); assay: Displacement of [3H]NMS from human M5 muscarinic receptor expressed in CHO-K1 cells

SMILES: CN1[C@@H]2C[C@@H](OC(=O)[C@H](CO)c3ccccc3)C[C@H]1[C@@H]1O[C@@H]12 [SCOPOLAMINE]
- Ki [1]: 36.9 nM
- Ki [2]: 9.5 nM
- Ki [3]: 17.6 nM
